Earlier results, collected in article PMC12018770, “DEAD‐Box Helicase 6 Blockade in Brain‐Derived Aβ Oligomers From Alzheimer's Disease Patients Attenuates Neurotoxicity” (MedComm, 2025).

Test system: AD patients
Conditions: ref [11], [12], [13], [14]; cited from earlier work
Description: Various Aβ antibody drugs designed to clear Aβ plaques from the brain have shown promising therapeutic effects in animal models (e.g., AD mice). […] Thus, DDX6‐targeting treatments in the early stages of Aβ aggregation could prevent the formation of Aβ oligomers and attenuate their neurotoxicity, potentially avoiding the side effects associated with s ...

Substance | efficacy in clinical trials (in words)
bapineuzumab [reference compound] | failed to demonstrate efficacy in improving cognitive function during key clinical trials
aducanumab [reference compound] | its efficacy in slowing or halting AD progression remains controversial
